Literature values as cited in patent US4251439A, “Pharmacologically active peptides” (Eli Lilly and Company, priority 1979, dated 1981).

Columns and labels:
[1] = administered parenterally; cited from earlier work
mice = details: administration intracerebroventricularly; cited from earlier work

For “H-Tyr-Gly-Gly-Phe-Leu-OH [leucine enkephalin]”, the useful analgesic activity [1] is listed as “practically devoid of any useful analgesic activity” and the analgesic activity (mice) is listed as “exhibit analgesic activity”.
